# Experimental data: patent publication US11117899B2, “[1,2,4]triazolo[1,5-c]pyrimidine derivative as A2A receptor inhibitor” (MEDSHINE DISCOVERY INC., priority 2017, dated 2021)
# Biological target: Human adenosine A2A receptor (Homo sapiens, UniProt P29274)
# Assay: Human adenosine A2A receptor calcium flux assay
# Details: read-out: IC50 value; A2A stable CHO cell strain, antagonist mode against agonist NECA at EC80, FLIPR Fluo-4
# Protocol: Human adenosine A2A receptor calcium flux assay
# A2A stable cell strain was constructed by Shanghai WuXi PharmaTech, and the host cell was CHO.
# Fluo-4 Direct Kit (Invitrogen, Cat. No. F10471). After the fluorescent detection reagent (specifically binding to calcium ions and causing an increase in fluorescence signal) in the kit was incubated with the cells for a suitable period of time, the compound was added to stimulate the cells to cause changes in intracellular calcium flux, thereby causing changes in the fluorescent signal, which can reflect the strength of the agonistic or inhibitory activity of the compound.
# F12+10% fetal bovine serum+geneticin 300 ug/ml+blasticidin 2 ug/ml Compound dilution buffer: […]
# FLIPR instrument software was run. According to the programmed procedure, 10 ul of compound dilution buffer was added to the cell plate and the fluorescence signal was read. 10 ul of the agonist reference compound at the indicated concentration was then added to the cell plate and the fluorescent signal was read. After reading, the data was exported by the “Max-Min”, “Read 90 to Maximum allowed” method in the software, and the EC80 of the A2A cell line was calculated. […]
# FLIPR instrument software was run. According to the programmed procedure, 10 μl of the test compounds and reference compound at an indicated concentration was added to the cell plate and the fluorescence signal was read. […]
row,IC50 [nM],SMILES
1,3.13,Cc1cc(-c2c(-c3ccccc3)nc(N)n3nc(CO[C@H]4CCOC4)nc23)cc(C(F)(F)F)n1
2,3.47,Cc1cc(-c2c(-c3ccccc3)nc(N)n3nc(CN(C)C)nc23)cc(C(F)(F)F)n1
